The subject of experiment [1] is serum IgE anti-estrogen antibodies. Nature of the experiment: Competition ELISA: absorption of serum IgE anti-estrogen with specific and non-specific antigens. Format: binding, human. To be noted: for IgE level after absorption: absorption with 250 μg/mL, optical density 405 nm. How it is done: (§1) For this, microtiter plates were coated with hormones and blocked by the addition of 2% BSA in PBST. 100 μl of serum diluent buffer was added to all wells. […] After 60 minutes incubation 100 μl serum anti-estrogen or anti-progesterone was added to all wells. […] Results were calculated as percentage of inhibition in antigen-antibody reaction.
(§2) To examine whether antibodies to estrogen or progesterone are specific or cross-reactive, we performed competition ELISA by adding specific and non-specific antigens in liquid phase and examined prevention of serum antibody binding to the antigen in solid phase. […] For IgE anti-estrogen, this inhibition by estrogen-BSA was between 54-62%, and with progesterone-BSA, from 37-43%. […] This cross-reaction between estrogen and progesterone antibodies may be due to structural similarities between these two hormones.

The subject of experiment [2] is serum IgG anti-estrogen antibodies. Nature of the experiment: Competition ELISA: absorption of serum IgG anti-estrogen with specific and non-specific antigens. Format: binding, human. To be noted: for IgG level after absorption: absorption with 250 μg/mL, optical density 405 nm. How it is done:
as §1, §2
(In general: In an ELISA, binding on a coated surface is turned into a signal by an enzyme label.)

The mark [3] stands for this setting: antigen in liquid phase, over the three sera.

As for human serum albumin [HSA], the “inhibition of IgE anti-estrogen binding” value in experiment [1] (setting [3]) was “did not significantly absorb”. The “IgE level after absorption” value is given as 2.11 in experiment [1] (serum sample 1, before absorption 2.15); 1.59 in experiment [1] (serum sample 2, before absorption 1.66); 1.21 in experiment [1] (serum sample 3, before absorption 1.34). In addition, in experiment [2] (setting [3]), the “inhibition of anti-estrogen binding to estrogen (IgG)” value is “did not significantly absorb”. The “IgG level after absorption” value in experiment [2] (serum sample 1, before absorption 1.83) was found to be 1.81; in experiment [2] (serum sample 2, before absorption 1.25) it was 1.19; in experiment [2] (serum sample 3, before absorption 0.76), 0.78.
